Values of other authors in US11452718B2 (AVALYN PHARMA INC., priority 2012, dated 2022).

Tested on: patients carrying the ALK fusion gene
Details: nausea, vomiting, or diarrhea; cited from earlier work

C[C@@H](Oc1cc(-c2cnn(C3CCNCC3)c2)cnc1N)c1c(Cl)ccc(F)c1Cl [Crizotinib]
patients with at least one side effect: Approximately 50%
